Assay results published in ChEMBL document CHEMBL1130246, “Tyrosine kinase inhibitors. 13. Structure-activity relationships for soluble 7-substituted 4-[(3-bromophenyl)amino]pyrido[4,3-d]pyrimidines designed as inhibitors of the tyrosine kinase activity of the epidermal growth factor receptor” (J Med Chem, 1997).

Sequences of proteins named here, by UniProt entry; tags and fusion partners are left off.
UniProt P00533, whole entry: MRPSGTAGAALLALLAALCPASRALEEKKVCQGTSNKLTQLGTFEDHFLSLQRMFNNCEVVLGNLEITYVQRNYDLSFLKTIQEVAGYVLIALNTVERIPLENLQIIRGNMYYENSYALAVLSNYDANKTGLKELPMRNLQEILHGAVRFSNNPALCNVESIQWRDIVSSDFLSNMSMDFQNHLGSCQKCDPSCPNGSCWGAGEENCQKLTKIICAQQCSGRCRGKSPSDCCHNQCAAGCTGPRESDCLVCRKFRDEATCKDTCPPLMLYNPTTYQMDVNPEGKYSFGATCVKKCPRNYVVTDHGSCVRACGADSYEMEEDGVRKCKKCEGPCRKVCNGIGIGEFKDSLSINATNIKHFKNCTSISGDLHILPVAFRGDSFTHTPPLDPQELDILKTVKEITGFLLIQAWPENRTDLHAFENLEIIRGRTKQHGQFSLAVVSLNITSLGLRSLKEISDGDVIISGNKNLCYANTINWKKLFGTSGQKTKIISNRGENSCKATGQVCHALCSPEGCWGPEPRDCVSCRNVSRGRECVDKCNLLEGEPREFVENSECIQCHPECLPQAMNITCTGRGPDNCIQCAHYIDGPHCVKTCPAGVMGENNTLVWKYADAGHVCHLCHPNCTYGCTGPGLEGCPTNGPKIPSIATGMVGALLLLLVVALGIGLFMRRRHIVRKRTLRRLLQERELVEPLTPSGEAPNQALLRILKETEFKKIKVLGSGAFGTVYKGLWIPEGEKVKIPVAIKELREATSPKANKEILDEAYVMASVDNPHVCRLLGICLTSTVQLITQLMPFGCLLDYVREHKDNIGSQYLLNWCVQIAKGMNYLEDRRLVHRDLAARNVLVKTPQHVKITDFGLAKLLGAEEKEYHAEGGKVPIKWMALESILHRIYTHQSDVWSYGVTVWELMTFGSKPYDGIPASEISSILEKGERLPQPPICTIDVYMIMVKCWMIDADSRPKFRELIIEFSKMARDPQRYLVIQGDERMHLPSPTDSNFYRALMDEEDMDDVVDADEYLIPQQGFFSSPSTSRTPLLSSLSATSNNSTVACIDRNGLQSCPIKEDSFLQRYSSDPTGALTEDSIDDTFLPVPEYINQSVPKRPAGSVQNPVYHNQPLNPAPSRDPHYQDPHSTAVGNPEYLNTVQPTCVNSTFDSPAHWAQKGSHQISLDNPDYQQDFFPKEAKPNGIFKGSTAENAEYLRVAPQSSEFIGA

Biological target: Epidermal growth factor receptor (Homo sapiens, UniProt P00533)
Assay: Inhibition of phosphorylation of polyglutamic acid/tyrosine random copolymer by epidermal growth factor receptor.

- IC50: 4 nM
SMILES: CNc1ccc2c(Nc3cccc(Br)c3)ncnc2c1
